From patent US20260240823A1
pIC50: −log10 of the molar value.

What was measured:
[1] = tested on: 4T1 mouse triple negative breast cancer cell line; assay: In vitro cell viability; details: 4T1, 72 hours of exposure
Description: FIG. 8: inhibition of cell viability of the 4T1 mouse triple negative breast cancer cells by in vitro PF-05175157. The bar graphs depict cell viability normalized to vehicle (DMSO) exposure at different PF-05175157 concentrations and cell seeding densities. OMA (oligomycin) is positive control and the error bars show 95% confidence intervals around mean values of the data. Numbers in the table show % viability under different conditions.
The efficacy of PF-05175157 was also assessed using a 4T1 mouse triple negative breast cancer cell line in vitro. Significant dose dependent inhibition was observed after 72 hours of exposure (FIG. 8).

[2] = tested on: parental BT474 cells; assay: In vitro cell viability; details: parental BT474, 72-hour exposure
[3] = tested on: 4 myeloma cell lines; assay: In vitro cell viability; details: all 4 myeloma models, 72 hour exposure
[4] = tested on: trastuzumab and pertuzumab resistant cells (BT-TPR1, BT-TPR2); assay: In vitro cell viability; details: HER2-targeted therapy resistant BT474 clones, 72-hour exposure
[5] = tested on: 15 breast cancer cell lines; assay: In vitro cell viability assay (CellTitre-Glo), panel; details: 10 μg/mL
[6] = tested on: fulvestrant resistant MCF7 (MCF7/FR-Luc) xenograft; assay: Orthotopic fulvestrant resistant MCF-7 xenograft, IVIS imaging; details: 20 mg/kg intraperitoneally once daily
[7] = tested on: RMG-1; assay: High throughput in vitro cell line screen; details: RMG-1, Ovarian
Description: (§1) A high throughput in vitro cell line screen including over 500 human cancer cell lines was performed to assess singe agent PF-05175157 activity beyond breast cancer cells. Cell lines with calculated IC50 less than 10 μM (~4 μg/mL) are provided herein. The results are consistent with reports in the literature that ACC inhibition impairs cell viability in a broad range of cancers.

[8] = tested on: SNU-182; assay: High throughput in vitro cell line screen; details: SNU-182, Liver
Description: as §1

[9] = tested on: KMS-34; assay: High throughput in vitro cell line screen; details: KMS-34, Myeloma
Description: as §1

[10] = tested on: H2342; assay: High throughput in vitro cell line screen; details: H2342, Lung
Description: as §1

[11] = tested on: H661; assay: High throughput in vitro cell line screen; details: H661, Lung
Description: as §1

[12] = tested on: MOLP-8; assay: High throughput in vitro cell line screen; details: MOLP-8, Myeloma
Description: as §1

[13] = tested on: JIMT-1; assay: High throughput in vitro cell line screen; details: JIMT-1, Breast
Description: as §1

[14] = tested on: MM.1R; assay: High throughput in vitro cell line screen; details: Myeloma
Description: as §1

[15] = tested on: RPMI-8226; assay: High throughput in vitro cell line screen; details: RPMI-8226, Myeloma
Description: as §1

[16] = tested on: H1563; assay: High throughput in vitro cell line screen; details: H1563, Lung
Description: as §1

[17] = tested on: KMS-12BM; assay: High throughput in vitro cell line screen; details: Myeloma
Description: as §1

[18] = tested on: EN; assay: High throughput in vitro cell line screen; details: Endometrial
Description: as §1

[19] = tested on: PLC/PRF5; assay: High throughput in vitro cell line screen; details: PLC/PRF5, Liver
Description: as §1

[20] = tested on: BIRCH; assay: High throughput in vitro cell line screen; details: Sarcoma
Description: as §1

[21] = tested on: KMS-20; assay: High throughput in vitro cell line screen; details: KMS-20, Myeloma
Description: as §1

[22] = tested on: LP-1; assay: High throughput in vitro cell line screen; details: LP-1, Myeloma
Description: as §1

[23] = tested on: A 498; assay: High throughput in vitro cell line screen; details: A 498, Kidney
Description: as §1

[24] = tested on: CAMA-1; assay: High throughput in vitro cell line screen; details: CAMA-1, Breast
Description: as §1

[25] = tested on: S34; assay: High throughput in vitro cell line screen; details: S34, Sarcoma
Description: as §1

[26] = tested on: JHH-4; assay: High throughput in vitro cell line screen; details: JHH-4, Liver
Description: as §1

[27] = tested on: HCC1419; assay: High throughput in vitro cell line screen; details: HCC1419, Breast
Description: as §1

[28] = tested on: U266B1; assay: High throughput in vitro cell line screen; details: U266B1, Myeloma
Description: as §1

[29] = tested on: OVK-18; assay: High throughput in vitro cell line screen; details: OVK-18, Ovarian
Description: as §1

[30] = tested on: KMS-27; assay: High throughput in vitro cell line screen; details: KMS-27, Myeloma
Description: as §1

[31] = tested on: HI1944; assay: High throughput in vitro cell line screen; details: HI1944, Lung
Description: as §1

[32] = tested on: NCI-H929; assay: High throughput in vitro cell line screen; details: NCI-H929, Myeloma
Description: as §1

[33] = cited from earlier work

Cc1nc2ccc(C(=O)N3CCC4(CC3)CC(=O)c3c(cnn3C(C)C)C4)cc2[nH]1
inhibition of cell viability [1]: Significant dose dependent inhibition | in vitro growth inhibition [2]: Significant in vitro growth inhibition | inhibition of cell viability [3]: dose-dependent inhibition | in vitro growth inhibition [4]: Significant in vitro growth inhibition | inhibition of cell viability / growth in breast cancer cell lines [5]: significantly inhibited cell viability in all but 1 of the cell lines | inhibition of cell viability / growth in breast cancer cell lines ([5]; listed as PF05175157): time and dose dependent growth inhibition in all but 1 of the 15 cancer cell lines | single agent activity [6]: Significant single agent activity | pIC50 [7]: 5.37 | pIC50 [8]: 5.20 | pIC50 [9]: 8.49 | pIC50 [10]: 5.14 | pIC50 [11]: 5.03 | pIC50 [12]: 8.49 | pIC50 [13]: 6.32 | pIC50 [14]: 5.03 | pIC50 [15]: 5.37 | pIC50 [16]: 5.11 | pIC50 [17]: 8.49 | pIC50 [18]: 5.81 | pIC50 [19]: 5.40 | pIC50 [20]: 5.00 | pIC50 [21]: 8.49 | pIC50 [22]: 5.69 | pIC50 [23]: 8.49 | pIC50 [24]: 5.32 | pIC50 [25]: 8.49 | pIC50 [26]: 5.00 | pIC50 [27]: 5.32 | pIC50 [28]: 5.07 | pIC50 [29]: 5.01 | pIC50 [30]: 6.34 | pIC50 [31]: 5.59 | pIC50 [32]: 8.49 | plasma Cmax ([33]; Phase I/II clinical trials, healthy volunteers and patients with type 2 diabetes): 20000 to 40000 ng/mL | Cmax that can be achieved in human serum ([33]; human serum): 20000 ng/mL
